Earlier results on one substance are cited in publication PMC12210912, “Pharmacologic properties and inhibitory activity of 6-azasteroids against Mycobacterium leprae in vivo and in vitro” (Microbiology Spectrum, 2025).

Chains of the proteins cited; added tags and fusions are not shown.
UniProt P10275, whole entry T878A: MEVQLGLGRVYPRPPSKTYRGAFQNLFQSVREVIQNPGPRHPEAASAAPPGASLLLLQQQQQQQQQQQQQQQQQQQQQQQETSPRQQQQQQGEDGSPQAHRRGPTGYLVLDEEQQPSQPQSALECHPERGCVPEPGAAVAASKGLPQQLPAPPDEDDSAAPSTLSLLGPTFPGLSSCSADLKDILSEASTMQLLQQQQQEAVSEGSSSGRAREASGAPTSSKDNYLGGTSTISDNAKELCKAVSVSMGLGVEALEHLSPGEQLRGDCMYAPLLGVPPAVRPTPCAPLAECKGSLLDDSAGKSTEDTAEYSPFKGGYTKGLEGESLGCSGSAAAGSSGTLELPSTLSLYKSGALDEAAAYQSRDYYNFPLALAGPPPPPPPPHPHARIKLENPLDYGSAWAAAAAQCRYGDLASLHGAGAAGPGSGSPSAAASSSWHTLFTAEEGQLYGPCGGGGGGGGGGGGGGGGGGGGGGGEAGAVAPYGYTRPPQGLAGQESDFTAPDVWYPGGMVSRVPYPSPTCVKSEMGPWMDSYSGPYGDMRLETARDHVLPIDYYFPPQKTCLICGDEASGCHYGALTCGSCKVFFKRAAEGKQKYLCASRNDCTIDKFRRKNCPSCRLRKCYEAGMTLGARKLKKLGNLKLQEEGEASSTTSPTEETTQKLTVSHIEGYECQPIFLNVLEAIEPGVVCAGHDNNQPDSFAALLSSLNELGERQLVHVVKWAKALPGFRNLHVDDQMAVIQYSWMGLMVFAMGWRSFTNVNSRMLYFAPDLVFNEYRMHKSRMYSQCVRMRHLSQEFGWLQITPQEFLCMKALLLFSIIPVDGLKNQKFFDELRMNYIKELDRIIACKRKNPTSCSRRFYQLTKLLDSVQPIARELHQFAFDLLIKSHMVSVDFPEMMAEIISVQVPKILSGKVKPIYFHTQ

pKd: −log10 of the molar value.

For this data set, the target named is Androgen Receptor (Homo sapiens, UniProt P10275, T878A). As to conditions: read-out: Kd of agonist radioligand, AR (human); LNCaP cells (cytosol); cited from earlier work.

One may read the pKd as the Kd on a negative log10 scale, so that one unit is a factor of ten. As to [^3H]methyltrienolone, the pKd was 7.97.
